In patent publication US12528818B2, “Compositions and methods for inhibition of RAS” (Leidos Biomedical Research, Inc., priority 2021, dated 2026):

How the values were obtained:
[1] = molecular target: Avi-KRAS G12C (1-169) GppNHp/RAF1 RBD-3xFLAG (52-151) (Homo sapiens, UniProt P01116, G12C); test: biochemical; conditions: Raf1-GppNHp-KRAS G12C disruption, Raf1 RBD-KRAS G12C-GppNHp disruption assay IC50
[2] = molecular target: GppNHp-loaded KRAS4b (amino acids 1-169) G12C/C118S protein (Homo sapiens, UniProt P01116, C118S/G12C); test: Covalent cysteine 12 modification by MALDI-TOF MS, GppNHp-loaded KRAS G12C; assay type: biochemical; conditions: 15 minutes reaction time
[3] = molecular target: GDP-loaded KRAS4b (amino acids 1-169) G12C/C118S protein (Homo sapiens, UniProt P01116, C118S/G12C); test: Covalent cysteine 12 modification by MALDI-TOF MS, GDP-loaded KRAS G12C; assay type: biochemical; conditions: 15 minutes reaction time
[4] = compounds 94 or before using 5 μM proteins
[5] = compound 95 or later using 1 μM proteins

IC50 [1] | GppNHp-KRAS G12C percent of modification [2, 4] | GDP-KRAS G12C percent of modification [3, 4] | GppNHp-KRAS G12C percent of modification [2, 5] | GDP-KRAS G12C percent of modification [3, 5] | SMILES
> 20 µM | D (percent of modification <10%) | A (percent of modification ≥70%) |  |  | C=CC(=O)N1CC2(CCN(c3ncnc4c(F)c(-c5ccc(F)c6sc(N)nc56)c(Cl)cc34)CC2)C1 [Compound 26]
0.5 to 5 µM | B (50≤percent of modification <70%) | A (percent of modification ≥70%) |  |  | C=CC(=O)N1CC(Nc2nc(O[C@@H]3CN(C)C[C@H]3OC)nc3c(F)c(-c4ccc(F)c5sc(N)nc45)c(Cl)cc23)C1 [Compound 31]
5 to 20 µM | C (10%≤percent of modification <50%) | A (percent of modification ≥70%) |  |  | C=CC(=O)N(C)CCNc1nc(OC[C@@H]2CCCN2C)nc2c(F)c(-c3ccc(F)c4sc(N)nc34)c(Cl)cc12 [Compound 38]
0.5 to 5 µM |  |  | D (percent of modification <10%) | A (percent of modification ≥70%) | C=CC(=O)N1CCN(c2nc(OC[C@]34CCCN3C[C@H](F)C4)nc3c(F)c(-c4ccc(F)c5sc(N)nc45)c(C(F)(F)F)cc23)[C@H](C)C1 [Compound 196]
< 0.5 µM |  |  | B (50≤percent of modification <70%) | A (percent of modification ≥70%) | C=CC(=O)N1CC[C@@H](N(c2nc(OC[C@@]34CCCN3C[C@H](F)C4)nc3c(F)c(-c4ccc(F)c5sc(N)nc45)c(C(F)(F)F)cc23)C2CC2)C1 (single isomer, unassigned) [Compound 236]
< 0.5 µM |  |  | C (10%≤percent of modification <50%) | A (percent of modification ≥70%) | C=CC(=O)N1CC(N(C)c2nc(OC[C@@]34CCCN3C[C@H](F)C4)nc3c(F)c(-c4ccc(F)c5sc(N)nc45)c(Cl)cc23)C1 [Compound 247]
> 20 µM |  |  | D (percent of modification <10%) | C (10%≤percent of modification <50%) | C=CC(=O)N1CC[C@@H](N(C)c2c(C#N)c(OC[C@@]34CCCN3C[C@H](F)C4)nc3c(F)c(-c4ccc(F)c5sc(N)nc45)c(Cl)cc23)C1 (atropisomer, axis not shown) [Compound 234]
< 0.5 µM | A (percent of modification ≥70%) | A (percent of modification ≥70%) |  |  | C=CC(=O)N1CC(Nc2nc(OC[C@@H]3C[C@@H](F)CN3C)nc3c(F)c(-c4ccc(F)c5sc(N)nc45)c(C(F)(F)F)cc23)C1 [Compound 77]
0.5 to 5 µM |  |  | D (percent of modification <10%) | A (percent of modification ≥70%) | C=CC(=O)N1CC(N(c2nc(OCC34CCCN3CCC4)nc3c(F)c(-c4ccc(F)c5sc(N)nc45)c(Cl)cc23)C2CC2)C1 [Compound 151]
0.5 to 5 µM |  |  | D (percent of modification <10%) | A (percent of modification ≥70%) | CC#CC(=O)N1CCN(c2nc(OCC34CCCN3CCC4)nc3c(F)c(-c4ccc(F)c5sc(N)nc45)c(Cl)cc23)CC1 [Compound 133]
5 to 20 µM | D (percent of modification <10%) | C (10%≤percent of modification <50%) |  |  | CN1CCC[C@H]1COc1nc(NC2CCCN(C#N)C2)c2cc(Cl)c(-c3ccc(F)c4sc(N)nc34)c(F)c2n1 (stereo partly drawn) [Compound 53]
> 20 µM | C (10%≤percent of modification <50%) | A (percent of modification ≥70%) |  |  | C=CC(=O)N1CC(Nc2nc(OC[C@@H]3CCCN3C)nc3c(F)c(-c4ccc(F)c5sc(N)nc45)ncc23)C1 [Compound 43]
0.5 to 5 µM |  |  | D (percent of modification <10%) | A (percent of modification ≥70%) | C=CC(=O)N1CC[C@@H]2[C@H]1CN2c1nc(OC[C@@H]2C[C@@H](F)CN2C)nc2c(F)c(-c3ccc(F)c4sc(N)nc34)c(C(F)(F)F)cc12 [Compound 138]
< 0.5 µM |  |  | C (10%≤percent of modification <50%) | A (percent of modification ≥70%) | C=CC(=O)N1CC[C@@H](N(C)c2nc(OC[C@@H]3CC(C)(C)CN3C)nc3c(F)c(-c4ccc(F)c5sc(N)nc45)c(C(F)(F)F)cc23)C1 [Compound 265]
< 0.5 µM |  |  | A (percent of modification ≥70%) | A (percent of modification ≥70%) | C=CC(=O)N1CC[C@@H](N(C)c2nc(OC[C@@H]3CC4(CC4)CN3C)nc3c(F)c(-c4ccc(F)c5sc(N)nc45)c(C(F)(F)F)cc23)C1 (atropisomer, axis not shown) [Compound 255]
0.5 to 5 µM |  |  | D (percent of modification <10%) | B (50≤percent of modification <70%) | C=CC(=O)N1CCN(c2c(C#N)c(OC[C@@]34CCCN3C[C@H](F)C4)nc3c(F)c(-c4ccc(F)c5sc(N)nc45)c(Cl)cc23)CC1 [Compound 200]
< 0.5 µM |  |  | B (50≤percent of modification <70%) | A (percent of modification ≥70%) | C=CC(=O)N1CCC(N(C)c2nc(OC[C@]34CCCN3C[C@H](F)C4)nc3c(F)c(-c4ccc(F)c5sc(N)c(C#N)c45)c(C(F)(F)F)cc23)[C@H]1C (stereo partly drawn) [Compound 477]
> 20 µM | D (percent of modification <10%) | A (percent of modification ≥70%) |  |  | C#Cc1cc2c(N3CCN(C(=O)C=C)CC3)ncnc2c(F)c1-c1ccc(F)c2sc(N)nc12 [Compound 34]
0.5 to 5 µM | C (10%≤percent of modification <50%) | A (percent of modification ≥70%) |  |  | C=CC(=O)N1CC[C@@H]2[C@H]1CN2c1nc(OCC23CCCN2CCC3)nc2c(F)c(-c3ccc(F)c4sc(N)nc34)c(Cl)cc12 [Compound 65]
> 20 µM | D (percent of modification <10%) | A (percent of modification ≥70%) |  |  | C=CC(=O)N1CC(Nc2nc(OC[C@@H]3CCCN3C)nc3c(F)c(-c4c(C)ccc5[nH]ncc45)c(Cl)cc23)C1 [Compound 75]
> 20 µM |  |  | D (percent of modification <10%) | D (percent of modification <10%) | C=CC(=O)N1CC2CC1CN(c1ncnc3c(F)c(-c4ccc(F)c5sc(N)nc45)c(Cl)cc13)C2 (stereo not drawn) [Compound 259]
0.5 to 5 µM | A (percent of modification ≥70%) | A (percent of modification ≥70%) |  |  | C#Cc1cc2c(N3CCN(C(=O)CCl)CC3)ncnc2c(F)c1-c1ccc(F)c2sc(N)nc12 [Compound 41]
0.5 to 5 µM |  |  | C (10%≤percent of modification <50%) | B (50≤percent of modification <70%) | C=CC(=O)N1CC(C)(Nc2nc(OCC34CCCN3CCC4)nc3c(F)c(-c4ccc(F)c5sc(N)nc45)c(Cl)cc23)C1 [Compound 164]
< 0.5 µM |  |  | C (10%≤percent of modification <50%) | A (percent of modification ≥70%) | C=CC(=O)N1CC(N(C)c2nc(OC[C@@]34CCCN3C[C@H](OC)C4)nc3c(F)c(-c4ccc(F)c5sc(N)nc45)c(C(F)(F)F)cc23)C1 [Compound 201]
> 20 µM | D (percent of modification <10%) | A (percent of modification ≥70%) |  |  | C=CC(=O)N1CCN(c2ncnc3c(F)c(-c4ccc(F)c5sc(N)nc45)c(Cl)cc23)CC1 [Compound 7]
< 0.5 µM |  |  | C (10%≤percent of modification <50%) | C (10%≤percent of modification <50%) | C=CC(=O)N1CC(N(CC)c2nc(OC[C@]34CCCN3C[C@H](F)C4)nc3c(F)c(-c4ccc(F)c5sc(N)nc45)c(C(F)(F)F)cc23)C1 [Compound 206]
< 0.5 µM | A (percent of modification ≥70%) | A (percent of modification ≥70%) |  |  | N#CN1CC(Nc2nc(OCC34CCCN3CCC4)nc3c(F)c(-c4ccc(F)c5sc(N)nc45)c(Cl)cc23)C1 [Compound 58]
0.5 to 5 µM | C (10%≤percent of modification <50%) | A (percent of modification ≥70%) |  |  | C=CC(=O)N1CC[C@@H]2[C@H]1CN2c1nc(OC[C@@H]2CCCN2C)nc2c(F)c(-c3ccc(F)c4sc(N)nc34)c(Cl)cc12 [Compound 66]
0.5 to 5 µM |  |  | C (10%≤percent of modification <50%) | A (percent of modification ≥70%) | C=CC(=O)N1CCN(c2nc(OC[C@@H]3C[C@@H](F)CN3C)nc3c(F)c(-c4ccc(F)c5sc(N)nc45)c(C(F)(F)F)cc23)CC1 [Compound 97]

SMILES | IC50 [1] | GppNHp-KRAS G12C percent of modification [2, 4] | GDP-KRAS G12C percent of modification [3, 4] | GppNHp-KRAS G12C percent of modification [2, 5] | GDP-KRAS G12C percent of modification [3, 5]
Nc1nc2c(-c3c(Cl)cc4c(NC5CN(C(=O)C(F)Cl)C5)ncnc4c3F)ccc(F)c2s1 (stereo not drawn) [Compound 21, 1-[3-[[7-(2-amino-7-fluoro-1,3-benzothiazol-4-yl)-6-chloro-8-fluoro-quinazolin-4-yl]amino]azetidin-1-yl]-2-chloro-2-fluoro-ethanone] | > 20 µM | D (percent of modification <10%) | D (percent of modification <10%) |  | 
